# Test results taken from patent publication US5464865A, “4-aryl- and 4-arylthio-5-hydroxy-2(5H)-furanones as inhibitors of phospholipase A2” (Ortho Pharmaceutical Corporation, priority 1993, dated 1995).
# Molecular target: T1, human platelet phospholipase A2 (Homo sapiens, UniProt P14555)
# T1 construct: a preparation of human platelet phospholipase A2; from tissue; host or cells: human platelets
# T1 sequence (P14555 21-144): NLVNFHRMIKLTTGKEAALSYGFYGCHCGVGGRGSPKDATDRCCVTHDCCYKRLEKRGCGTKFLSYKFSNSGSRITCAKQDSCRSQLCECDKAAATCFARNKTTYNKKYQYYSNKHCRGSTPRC
# Test: Inhibition of human platelet phospholipase A2 (14C-oleate E. coli substrate)
# Type: biochemical
# Procedure: The activity of the compounds of the invention against phospholipase A2 is determined using a preparation of human platelet phospholipase A2 with a specific activity of 180 nmol/min/mg as the enzyme source. Polypropylene 15-ml test tubes are utilized as the reaction vessels. All drug samples are run in duplicate, with "blank" and "control" (no test compound) groups run in triplicate. […] Test compounds are dissolved in DMSO, and diluted to a projected final concentration of either 50 or 10 μM in 550 μl HEPES buffer at pH 7.0. A 1:7 dilution of human platelet PLA2 in HEPES buffer (5 μl) is added to each test tube, followed by gentle vortexing for 3 seconds. […]
# The plate is developed with an 80:20:1 mixture of petroleum ether-diethyl ether-acetic acid. […] The plate is scored above the origin, cut along the score with scissors, and the reactant (origin) and product portions of each channel are put into separate scintillation vials. […] The vials are shaken vigorously for 5 sec, and the radioactive ^14 C in each vial is measured with a scintillation counter, which provides the counts-per-minute (cpm) for each sample. […]
# The percentage of phospholipid hydrolyzed is calculated by the formula: […]
# The inhibition of phospholipase A2 by the test compounds is expressed as a percent inhibition relative to the control group: […]
smiles,measurement,value
"Cc1cc2c(C(C)C)c(O)c(O)c(C=O)c2c(O)c1-c1c(C)cc2c(C(C)C)c(O)c(O)c(C=O)c2c1O [Gossypol, reference compound]",IC50,1000 nM
